# Results: ChEMBL document CHEMBL4422663, “Suppression of Tumor Growth and Metastases by Targeted Intervention in Urokinase Activity with Cyclic Peptides” (J Med Chem, 2019)
# Biological target: T1, Suppressor of tumorigenicity 14 protein (Homo sapiens, UniProt Q9Y5Y6)
# T1 sequence (Q9Y5Y6 whole entry): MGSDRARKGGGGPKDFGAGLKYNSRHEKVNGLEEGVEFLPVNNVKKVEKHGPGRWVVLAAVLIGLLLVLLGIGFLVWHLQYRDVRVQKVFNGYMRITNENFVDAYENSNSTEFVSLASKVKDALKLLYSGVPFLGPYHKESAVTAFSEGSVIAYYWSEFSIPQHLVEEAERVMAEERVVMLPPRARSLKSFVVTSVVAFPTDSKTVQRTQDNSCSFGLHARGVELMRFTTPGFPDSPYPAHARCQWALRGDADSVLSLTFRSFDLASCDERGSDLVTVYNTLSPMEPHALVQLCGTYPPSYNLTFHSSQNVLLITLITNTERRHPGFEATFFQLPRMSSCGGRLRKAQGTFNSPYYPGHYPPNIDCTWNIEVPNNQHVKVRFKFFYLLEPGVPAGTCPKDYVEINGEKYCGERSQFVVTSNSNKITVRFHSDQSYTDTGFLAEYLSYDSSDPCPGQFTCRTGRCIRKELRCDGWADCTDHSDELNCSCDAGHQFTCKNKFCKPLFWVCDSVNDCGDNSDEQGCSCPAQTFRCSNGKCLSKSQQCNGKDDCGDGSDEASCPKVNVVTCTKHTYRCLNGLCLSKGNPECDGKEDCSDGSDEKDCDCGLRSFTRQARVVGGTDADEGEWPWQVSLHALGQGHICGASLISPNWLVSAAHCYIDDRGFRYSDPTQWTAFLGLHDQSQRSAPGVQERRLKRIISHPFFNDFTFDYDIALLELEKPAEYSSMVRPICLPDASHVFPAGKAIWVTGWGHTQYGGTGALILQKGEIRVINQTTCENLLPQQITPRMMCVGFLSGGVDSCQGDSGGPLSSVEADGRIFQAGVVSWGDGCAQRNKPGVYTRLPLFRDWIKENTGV
# Experiment: Inhibition of matriptase (unknown origin)
smiles,measurement,value
CCOC(=O)N1CCN(C(=O)[C@H](Cc2cccc(C(=N)N)c2)NS(=O)(=O)c2c(C(C)C)cc(C(C)C)cc2C(C)C)CC1,Ki,370 nM
